The results in this text go back to patent US20240317732A1, “A NEW MOLECULAR SCAFFOLD FOR TARGETING HRPN13” (THE UNITED STATES OF AMERICA AS REPRESENTED BY THE …, priority 2021, published 2024).

Chains of the proteins cited; added tags and fusions are not shown. Residues count along the entry.
UniProt Q16186, 1-150 limits assumed: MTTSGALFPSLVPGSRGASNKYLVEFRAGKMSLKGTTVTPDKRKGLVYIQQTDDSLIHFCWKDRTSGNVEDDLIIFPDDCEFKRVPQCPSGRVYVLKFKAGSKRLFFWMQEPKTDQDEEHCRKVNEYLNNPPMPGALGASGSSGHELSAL

In general, Kd refers to a measure of binding affinity in units of concentration.

In assay [1] the target is T1, hRpn13 Pru (Homo sapiens (Human), UniProt Q16186). As to the kind of experiment: Isothermal titration calorimetry (ITC) of hRpn13 Pru binding. To be noted: read-out: ITC Kd; 200 μM hRpn13 Pru into 20 μM compound, 25° C., buffer C. As for the experimental part:
ITC experiments were performed at 25° C. on a MicroCal iTC200 system (Malvern, PA, USA). hRpn13 Pru, XL5, XL5 derivative, or RA190 were prepared in buffer C. One aliquot of 0.5 μL followed by 17 or 18 aliquots of 2.1 μL of 200 μM hRpn13 Pru was injected at 750 r.p.m. into a calorimeter cell (volume […]) that contained 20 μM XL5, XL5 derivative, or RA190. Blank experiments were performed by replacing XL5, XL5 derivative, or RA190 with buffer in the cell and the resulting data subtracted from the experimental data during analyses. The integrated interaction heat values were normalized as a function of protein concentration and the data were fit with MicroCal Origin 7.0-based software implementing the “One Set of Sites” model to yield binding affinity Ka (1/Kd), stoichiometry, and other thermodynamic parameters. Dissociation constants (Kd) as determined by ITC as well as relative binding affinities of selected compounds are presented n Table 1, while additional information on named compounds including structures, synthesis, and characterization is presented in Examples 3-9: […]

Assay [2] deals with T1, hRpn13 Pru. Briefly: 2D NMR (1H,15N HSQC) binding to 15N-labeled hRpn13 Pru. To be noted: assessed by ITC and NMR. An excerpt:
We conducted in silico docking screens of commercial libraries containing in total 63 million compounds by using the hRpn13 Pru:hRpn2 structure and hRpn2-binding site of hRpn13 as a binding pocket. Twenty-two potential lead compounds were selected for validation by biophysical assays. hRpn13 W108 is partially exposed when free but buried by hRpn2, enabling tryptophan quenching by differential scanning fluorimetry (DSF at λ350) for assaying binding and this approach was used to screen for compound binding to this site. 20 μM compound (separately for twenty compounds) was incubated with 1 μM hRpn13 Pru and fluorescence emission at 350 nm measured. […] The compounds were separately added at 10-fold molar excess to 20 μM ^15N-labeled hRpn13 Pru and binding assessed at 25° C. by 2D NMR for samples dissolved in NMR buffer (20 mM sodium phosphate, 50 mM NaCl, 2 mM DTT, 10% DMSO-d6 (deuterated DMSO), pH 6.5). […]
For screening by ^1H, ^15N HSQC experiments, small molecule dissolved in DMSO-d6 was added to 20 μM or 250 μM ^15N-labeled hRpn13 Pru at a molar excess of 2-fold (for XL5) or 10-fold (for all compounds tested) in NMR buffer (20 mM sodium phosphate, 50 mM NaCl, 2 mM DTT, 10% DMSO-d6, pH 6.5). […] Three ^13C-half-filtered NOESY experiments were recorded with a 100 ms mixing time on asymmetrically labeled samples dissolved in NMR buffer. […]
Background: In ITC the heat of successive injections is recorded.

As for `N#CC(=Cc1cccc(NC(=O)c2ccc(C(F)(F)F)cc2)c1)C(=O)Nc1ccccc1C(=O)O`, the Kd in assay [1] stood at 6.67 µM. Also, the “change of affinity for hRpn13 Pru relative to XL5” value in assay [2] is “similarly reduced affinity”.
